Laboratory results as given in US9259479B2, “Treatment for comorbid diabetes with chronic kidney disease” (Eli Lilly and Company, priority 2012, dated 2016).
Read-outs that look alike come from different tables or passages of the source. Marks after values point to notes of the source that are not given here.

Experiments:
[1] = 5/6 nephrectomized rat study: pharmacokinetics after intravenous injection; type: in vivo, Sprague Dawley male rats; settings: for AUC(0-∞) / CL (clearance) / Vss (steady-state volume of distribution) / C0: 10 nmol/kg IV, mean; for C0: read-out: C0 (concentration at time zero)
[2] = for AUC(0-∞) / CL/F / Dose-normalized AUC(0-∞) / Dose-normalized Cmax / Vss/F / t1/2 / Tmax / Cmax: single SC 2.9 nmol/kg; for Tmax: median; for Cmax: serum
[3] = Pharmacokinetic comparison in STZ-treated diabetic rats, single SC injection
[4] = mild renal impairment, geometric mean
[5] = moderate renal impairment, geometric mean
[6] = normal renal function, geometric mean
[7] = severe renal impairment, geometric mean
[8] = single dose, cohorts by renal function
[9] = hex (hexameric, Zn/m-cresol) formulation, SC 9.3 nmol/kg
[10] = hex (hexameric, Zn/m-cresol) formulation, SC 56.8 nmol/kg
[11] = hex (hexameric, Zn/m-cresol) formulation, SC 93 nmol/kg
[12] = hex (hexameric, Zn/m-cresol) formulation, SC 568 nmol/kg
[13] = mono (monomeric, PBS) formulation, SC 9.3 nmol/kg
[14] = mono (monomeric, PBS) formulation, SC 56.8 nmol/kg
[15] = mono (monomeric, PBS) formulation, SC 93 nmol/kg
[16] = mono (monomeric, PBS) formulation, SC 568 nmol/kg

For “PEG20 kDa-LysB28 insulin lispro [PEG20kDa-LysB28 insulin lispro]”, the “AUC(0-∞)” value ([1]; 5/6 nephrectomized rats) was 0.305 µM·h, the “CL (clearance)” value ([1]; 5/6 nephrectomized rats) was 0.55 mL/min/kg and the “Vss (steady-state volume of distribution)” value ([1]; 5/6 nephrectomized rats) was 0.050 L/kg. For the same substance, the C0 ([1]; 5/6 nephrectomized rats) was 295 nM, the “impact of nephrectomy on clearance” value ([1]; 5/6 nephrectomized vs sham rats) was “no statistically significant impact of nephrectomy” and the “statistical difference of PK parameters between 5/6 and sham” value ([1]; 5/6 nephrectomized vs sham rats, table footnote) was “None of PEG(20 kDa)-insulin lispro parameters are statistically significantly different”. For the same substance, the “AUC(0-∞)” value ([1]; sham rats) was 0.287 µM·h, the “CL (clearance)” value ([1]; sham rats) was 0.583 mL/min/kg and the “Vss (steady-state volume of distribution)” value ([1]; sham rats) was 0.059 L/kg. The C0 ([1]; sham rats) was 239 nM, the “Fraction of Dialysis Elimination” value ([2]; ESRD, hemodialysis, high-flux polysulfone membranes, geometric mean) was 0.128^c and the “AUC(0-∞)” value ([2]; ESRD, geometric mean) was 0.0734 µM·h. For the same substance, the CL/F ([2]; ESRD, geometric mean) was 3.10 L/h, the “Dose-normalized AUC(0-∞)” value ([2]; ESRD, geometric mean) was 0.323 pmol · hr/L/pmol and the “Dose-normalized Cmax” value ([2]; ESRD, geometric mean) was 0.00518 pmol/L/pmol. For the same substance, the Vss/F ([2]; ESRD, geometric mean) was 210 L, the t1/2 ([2]; ESRD, geometric mean) was 45.7 h and the Tmax ([2]; ESRD) was 24.00 h. The Cmax ([2]; ESRD, geometric mean) was 1.18 nM, the “AUC(0-∞)” value [2, 4] was 0.11 µM·h and the CL/F [2, 4] was 2.21 L/h. The “Dose-normalized AUC(0-∞)” value [2, 4] was 0.452 pmol · hr/L/pmol, the “Dose-normalized Cmax” value [2, 4] was 0.00863 pmol/L/pmol and the Vss/F [2, 4] was 121 L. It also gave a t1/2 [2, 4] of 37.2 h, a Tmax ([2]; mild renal impairment) of 12.00 h and a Cmax [2, 4] of 2.09 nM. For the same substance, the “AUC(0-∞)” value [2, 5] was 0.0904 µM·h, the CL/F [2, 5] was 2.33 L/h and the “Dose-normalized AUC(0-∞)” value [2, 5] was 0.429 pmol · hr/L/pmol. For the same substance, the “Dose-normalized Cmax” value [2, 5] was 0.00623 pmol/L/pmol, the Vss/F [2, 5] was 154 L and the t1/2 [2, 5] was 43.7 h. The Tmax ([2]; moderate renal impairment) was 24.01 h, the Cmax [2, 5] was 1.31 nM and the “AUC(0-∞)” value [2, 6] was 0.0841 µM·h. The CL/F [2, 6] was 2.84 L/h, the “Dose-normalized AUC(0-∞)” value [2, 6] was 0.352 pmol · hr/L/pmol and the “Dose-normalized Cmax” value [2, 6] was 0.00713 pmol/L/pmol. The Vss/F [2, 6] was 142 L, the t1/2 [2, 6] was 34.9 h and the Tmax ([2]; normal renal function) was 12.00 h. The Cmax [2, 6] was 1.7 nM, the “AUC(0-∞)” value [2, 7] was 0.0824 µM·h and the CL/F [2, 7] was 2.36 L/h. For the same substance, the “Dose-normalized AUC(0-∞)” value [2, 7] was 0.424 pmol · hr/L/pmol, the “Dose-normalized Cmax” value [2, 7] was 0.00532 pmol/L/pmol and the Vss/F [2, 7] was 171 L. For the same substance, the t1/2 [2, 7] was 42.4 h, the Tmax ([2]; severe renal impairment) was 30.00 h and the Cmax [2, 7] was 1.03 nM. For the same substance, the “half-life (t1/2) across the cohorts” value [2, 8] was “statistically similar across the cohorts”, the “time-course profile of serum concentration across cohorts” value [2, 8] was “statistically similar in each cohort of subjects” and the AUC [3, 9] was 0.075 ± 0.0025 µM·h. It also gave a CL/F [3, 9] of 2.07 ± 0.067 mL/min/kg, a Cmax [3, 9] of 2.4 ± 0.3 nM and a Tmax [3, 9] of 12 ± 0 h. It also gave an AUC [3, 10] of 0.281 ± 0.016 µM·h, a CL/F [3, 10] of 3.33 ± 0.17 mL/min/kg and a Cmax [3, 10] of 12.4 ± 0.7 nM. For the same substance, the Tmax [3, 10] was 9.0 ± 3.5 h, the AUC [3, 11] was 0.541 ± 0.135 µM·h and the CL/F [3, 11] was 3 ± 0.67 mL/min/kg. It also gave a Cmax [3, 11] of 35 ± 12 nM, a Tmax [3, 11] of 12 ± 0 h and an AUC [3, 12] of 7.45 ± 0.34 µM·h. The CL/F [3, 12] was 1.27 ± 0.067 mL/min/kg, the Cmax [3, 12] was 323 ± 48 nM and the Tmax [3, 12] was 12 ± 0 h. It also gave an AUC [3, 13] of 0.0409 ± 0.0075 µM·h, a CL/F [3, 13] of 3.83 ± 0.67 mL/min/kg and a Cmax [3, 13] of 1.6 ± 0.4 nM. The Tmax [3, 13] was 9.0 ± 3.5 h, the AUC [3, 14] was 0.228 ± 0.024 µM·h and the CL/F [3, 14] was 4.17 ± 0.5 mL/min/kg. For the same substance, the Cmax [3, 14] was 11.4 ± 1.1 nM, the Tmax [3, 14] was 10.5 ± 3.0 h and the AUC [3, 15] was 0.506 ± 0.122 µM·h. The CL/F [3, 15] was 3.17 ± 0.67 mL/min/kg, the Cmax [3, 15] was 26.4 ± 7 nM and the Tmax [3, 15] was 10.5 ± 3.0 h. The AUC [3, 16] was 6.31 ± 1.7 µM·h, the CL/F [3, 16] was 1.6 ± 0.467 mL/min/kg and the Cmax [3, 16] was 281 ± 96 nM. The Tmax [3, 16] was 12 ± 0 h and the “PK profile of the two molecules compared” value ([3]; monomeric and hexameric formulation conditions) was “statistically similar”.
